Counter-ions that a name gives are not always drawn.

The first test has as its system clot lysis (fibrinolysis) in diluted human citrated plasma, tPA-induced. Briefly: Plasma-based clot lysis assay (5%). The following applies: human citrated platelet-poor plasma 5%, fibrinogen 3 μM, CaCl2 10 mM, tPA 0.2 nM, 37° C., OD at 405 nm. Type of test: biochemical. As for the experimental part:
B-2. Plasma-based Clot Lysis Assay (5%)
The clot-lysis test system configures the kinetics of clot formation and degradation in vitro and allows quantifying modulation of the process by selected test compounds.
The test compounds were dissolved in 1% acetic acid and further complemented with an equal volume of DMSO. The resulting stock solutions were serially diluted in 0.5% acetic acid/50% DMSO. 1 μL aliquots of these solutions were placed into 384 well microplates (Greiner, black, transparent bottom), followed by 30 μL of diluted human citrated plasma (platelet-poor, final concentration: 5%; supplemented with fibrinogen, final concentration: 3 μM; dilution buffer: 20 mM HEPES, 150 mM NaCl, 0.01% Brij (pH 7)). The reactions were started by addition of 20 μL of CaCl2 (final concentration: 10 mM), and tPA (tissue plasminogen activator, final concentration: 0.2 nM) in dilution buffer, followed by an additional volume of 20 μL dilution buffer for improved mixing. The reactions were incubated at 37° C. […] IC50 values were determined by comparing the resulting time courses with the time course of a blank control reaction.
For `C[C@H]1CCCN1Cc1cnn2c(C3CCNCC3)cc(=O)[nH]c12` [Example 363, 3-{[(2S)-2-methylpyrrolidin-1-yl]methyl}-7-(piperidin-4-yl)pyrazolo[1,5-a]pyrimidin-5(4H)-one hydrochloride], half-maximal inhibition (IC50) was put at 0.13 µM. `O=c1cc(C2CCNCC2)n2ncc(-c3cccc(OCc4ccccc4)c3)c2[nH]1` [Example 12, 3-[3-(Benzyloxy)phenyl]-7-(piperidin-4-yl)pyrazolo[1,5-a]pyrimidin-5(4H)-one hydrochloride] registered an IC50 of 0.03 µM. The same measure, in the same setting: then `COc1ccccc1-c1c(C)nn2c(C3CCNCC3)cc(=O)[nH]c12` [Example 6, 3-(2-Methoxyphenyl)-2-methyl-7-(piperidin-4-yl)pyrazolo[1,5-a]pyrimidin-5(4H)-one hydrochloride], with 0.17 µM; and `Cc1ccc(-c2noc(-c3cnn4c(C5CCNCC5)cc(=O)[nH]c34)n2)cc1C` [Example 129, 3-[3-(3,4-Dimethylphenyl)-1,2,4-oxadiazol-5-yl]-7-(piperidin-4-yl)pyrazolo[1,5-a]pyrimidin-5(4H)-one hydrochloride], with 0.038 µM.

Regarding `CC(C)(C)c1noc(-c2cnn3c(C4CCNCC4)cc(=O)[nH]c23)n1` [Example 194, 3-(3-tert-butyl-1,2,4-oxadiazol-5-yl)-7-(piperidin-4-yl)pyrazolo[1,5-a]pyrimidin-5(4H)-one hydrochloride], the IC50 worked out at 0.029 µM.

For `CCCOC(=O)c1cnn2c(C3CCNCC3)cc(=O)[nH]c12` [Example 358, Propyl 5-oxo-7-(piperidin-4-yl)-4,5-dihydropyrazolo[1,5-a]pyrimidine-3-carboxylate hydrochloride], the IC50 was determined as 0.024 µM.

In turn, `O=c1cc(C2CCNCC2)n2ncc(-c3nc(-c4ccccc4OC(F)(F)F)no3)c2[nH]1` [Example 155, 7-(piperidin-4-yl)-3-{3-[2-(trifluoromethoxy)phenyl]-1,2,4-oxadiazol-5-yl}pyrazolo[1,5-a]pyrimidin-5(4H)-one hydrochloride] had an IC50 of 0.014 µM.

For `CCOC(=O)c1noc(-c2cnn3c(C4CCNCC4)cc(=O)[nH]c23)n1` [Example 211, Ethyl 5-[5-oxo-7-(piperidin-4-yl)-4,5-dihydropyrazolo[1,5-a]pyrimidin-3-yl]-1,2,4-oxadiazole-3-carboxylate hydrochloride], half-maximal inhibition (IC50) was put at 0.034 µM. In the case of `COC1CCN(C(=O)c2c(C)nn3c(C4CCNCC4)cc(=O)[nH]c23)CC1` [Example 403, 3-[(4-methoxypiperidin-1-yl)carbonyl]-2-methyl-7-(piperidin-4-yl) pyrazolo[1,5-a] pyrimidin-5(4H)-one hydrochloride], the IC50 amounted to 0.036 µM. With `CN(CCC(N)=O)C(=O)c1cnn2c(C3CCNCC3)cc(=O)[nH]c12` [Example 99, N-(3-amino-3-oxopropyl)-N-methyl-5-oxo-7-(piperidin-4-yl)-4,5-dihydropyrazolo[1,5-a]pyrimidine-3-carboxamide hydrochloride], the midpoint of inhibition, the IC50, lay at 0.049 µM.

With `Cc1nn2c(C3CCNCC3)cc(=O)[nH]c2c1-c1nc(C2CC2(C)C)no1` (stereo not shown) [Example 346, 3-[3-(2,2-dimethylcyclopropyl)-1,2,4-oxadiazol-5-yl]-2-methyl-7-(piperidin-4-yl)pyrazolo[1,5-a]pyrimidin-5(4H)-one hydrochloride], the IC50 amounted to 0.017 µM. In the case of `Cc1cc(-c2nnc(-c3cnn4c(C5CCNCC5)cc(=O)[nH]c34)o2)ccn1` [Example 183, 3-[5-(2-methylpyridin-4-yl)-1,3,4-oxadiazol-2-yl]-7-(piperidin-4-yl)pyrazolo[1,5-a]pyrimidin-5(4H)-one hydrochloride], half-maximal inhibition (IC50) was put at 0.05 µM. Take `O=c1cc(C2CCNCC2)n2nc3c(c2[nH]1)CCCC3` [Example 333, 4-(piperidin-4-yl)-7,8,9,10-tetrahydropyrimido[1,2-b]indazol-2(1H)-one hydrochloride]: it took 0.37 µM to reach half-maximal inhibition (IC50). `Cc1c(Cl)cccc1-c1nc(-c2cnn3c(C4CCNCC4)cc(=O)[nH]c23)no1` [Example 229, 3-[5-(3-chloro-2-methylphenyl)-1,2,4-oxadiazol-3-yl]-7-(piperidin-4-yl)pyrazolo[1,5-a]pyrimidin-5(4H)-one hydrochloride] yielded an IC50 of 0.036 µM. Turning to `CC1CCCN1C(=O)c1cnn2c(C3CCNCC3)cc(=O)[nH]c12` (stereo in doubt) [Example 325, 3-{[(2R)-2-methylpyrrolidin-1-yl]carbonyl}-7-(piperidin-4-yl)pyrazolo[1,5-a]pyrimidin-5(4H)-one hydrochloride], the IC50 came to 0.018 µM.

In the case of `O=c1cc(C2CCNCC2)n2ncc(-c3noc(C45CCC(CC4)CC5)n3)c2[nH]1` [Example 261, 3-[5-(bicyclo[2.2.2]oct-1-yl)-1,2,4-oxadiazol-3-yl]-7-(piperidin-4-yl)pyrazolo[1,5-a]pyrimidin-5(4H)-one hydrochloride], the IC50 was determined as 0.024 µM.

`CC(CN1CCOCC1)c1nnc(-c2cnn3c(C4CCNCC4)cc(=O)[nH]c23)o1` (stereo not shown) [Example 281, 3-{5-[1-(morpholin-4-yl)propan-2-yl]-1,3,4-oxadiazol-2-yl}-7-(piperidin-4-yl)pyrazolo[1,5-a]pyrimidin-5(4H)-one hydrochloride] came in with an IC50 of 0.09 µM.

As to `O=c1cc(C2CCNCC2)n2ncc(-c3cc(-c4ccccc4)no3)c2[nH]1` [Example 263, 3-(3-phenyl-1,2-oxazol-5-yl)-7-(piperidin-4-yl)pyrazolo[1,5-a]pyrimidin-5(4H)-one hydrochloride], half-maximal inhibition (IC50) required 0.028 µM. Still for that read-out and setting: then `O=c1cc(C2CCNCC2)n2ncc(CN3CCOCC3)c2[nH]1` [Example 348, 3-(morpholin-4-ylmethyl)-7-(piperidin-4-yl)pyrazolo[1,5-a]pyrimidin-5(4H)-one hydrochloride], with 0.16 µM; and `O=C(c1cnn2c(C3CCNCC3)cc(=O)[nH]c12)N1CC[C@@H](O)C1` [Example 320, 3-{[(3R)-3-hydroxypyrrolidin-1-yl]carbonyl}-7-(piperidin-4-yl)pyrazolo[1,5-a]pyrimidin-5(4H)-one hydrochloride], with 0.082 µM. On to `O=c1cc(C2CCNCC2)n2nc(-c3ccccc3)c(-c3ccc(F)cc3)c2[nH]1` [Example 64, 3-(4-Fluorophenyl)-2-phenyl-7-(piperidin-4-yl)pyrazolo[1,5-a]pyrimidin-5(4H)-one hydrochloride], for which half-maximal inhibition (IC50) was put at 0.039 µM. Turning to `O=C(c1cnn2c(C3CCNCC3)cc(=O)[nH]c12)N1CCC(F)(F)CC1` [Example 362, 3-[(4,4-difluoropiperidin-1-yl)carbonyl]-7-(piperidin-4-yl)pyrazolo[1,5-a]pyrimidin-5 (4H)-one hydrochloride], it took 0.021 µM to reach half-maximal inhibition (IC50).

The test is the same for the next values; noted with them: human citrated platelet-poor plasma 5%, fibrinogen 3 μM, CaCl2 10 mM, tPA 0.2 nM, 37° C., OD at 405 nm; hydrochloride.
`Cc1nn2c(C3CCNCC3)cc(=O)[nH]c2c1-c1cccc(C(F)(F)F)c1` [Example 13, 2-Methyl-7-(piperidin-4-yl)-3-[3-(trifluoromethyl)phenyl]pyrazolo[1,5-a]pyrimidin-5(4H)-one hydrochloride] showed an IC50 of 0.021 µM. For `Cc1nn2c(C3CCNCC3)cc(=O)[nH]c2c1-c1cccc(C(F)(F)F)c1` [Example 7, 2-Methyl-7-(piperidin-4-yl)-3-[3-(trifluoromethyl)phenyl]pyrazolo[1,5-a]pyrimidin-5 (4H)-one hydrochloride], 0.031 µM corresponded to half-maximal inhibition (IC50). With `CCOC(=O)c1c(C)nn2c(C3CCNCC3)cc(=O)[nH]c12` [Example 396, Ethyl 2-methyl-5-oxo-7-(piperidin-4-yl)-4,5-dihydropyrazolo[1,5-a]pyrimidine-3-carboxylate hydrochloride], the IC50 was determined as 0.04 µM.

The values are drawn from patent publication US10118930B2, “Piperidinylpyrazolopyrimidinones and their use” (BAYER PHARMA AKTIENGESELLSCHAFT, priority 2015, dated 2018).
